Source: paper PMC5228037, “Discovery and Mechanistic Characterization of Selective Inhibitors of H2S-producing Enzyme: 3-Mercaptopyruvate Sulfurtransferase (3MST) Targeting Active-site Cysteine Persulfide” (Scientific Reports, 2017)

Sequences of proteins named here, by UniProt entry; tags and fusion partners are left off.
UniProt Q99J99, whole entry: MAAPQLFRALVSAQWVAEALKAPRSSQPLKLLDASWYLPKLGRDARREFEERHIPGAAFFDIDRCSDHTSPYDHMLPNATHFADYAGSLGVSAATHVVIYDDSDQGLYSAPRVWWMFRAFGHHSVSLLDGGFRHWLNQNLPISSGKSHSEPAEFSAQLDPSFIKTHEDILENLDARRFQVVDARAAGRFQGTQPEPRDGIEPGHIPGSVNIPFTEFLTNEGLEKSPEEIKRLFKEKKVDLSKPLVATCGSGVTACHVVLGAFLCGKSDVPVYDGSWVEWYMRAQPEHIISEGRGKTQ

How the values were obtained:
[1] = Reactivity test toward 3MP and DTT (2nd screening, no enzyme); conditions: 50 μM 3MP, 40 μM DTT, no 3MST, mean±S.D. n = 4
Experimental: Reactivity of the hit compounds toward 3MP and DTT was examined. The final concentration of the compounds was 10 or 50 μM. The assay protocol was as follows: compounds were diluted with HSip-1 solution to 20 or 100 μM solution (10% DMSO) with a Multi-Drop Combi. Next, 3MP and DTT solution (10 μL, final concentrations: 50 μM 3MP and 40 μM DTT) was dispensed into the plates (total volume was 20 μL, 5% DMSO), and the plates were incubated at room temperature for 3 hr. The fluorescence of HSip-1 was measured (λex = 485 nm, λem = 520 nm) with a microplate reader (PHERAstar PLUS). Background control wells (i.e., no addition wells instead of addition of 3MP and DTT, n = 16) were also prepared for all plates.
Supplementary Note 3. […]
The second screening, which is a non-enzymatic assay, was performed to eliminate false-positive hit compounds such as naphthoquinone that react with the substrates, e.g., 3MP and DTT. Even in […]
μM 3MP and 40 μM DTT. The fluorescence increase in the presence or the absence of 3MP and DTT was regarded as 100% or 0% fluorescence signal, respectively, and we evaluated the ability of each compound (10 μM and 50 μM) to inhibit the fluorescence increase caused by the reaction with 3MP and DTT. In this assay, we selected compounds showing ‒25% ≤ inhibitory activity at both 10 and 50 μM ≤ 50% (545 compounds). Then, we further selected compounds showing more than 60% inhibitory activity in the previous confirmation test among 545 compounds (146 hit compounds) (Supplementary Fig. S7). These compounds were considered not to react with 3MP and DTT, at least in this concentration range. […]

[2] = Reactivity test toward H2S (3rd screening, cysteine-activated H2S donor); conditions: 40 μM H2S donor, 1 mM L-cysteine, 37 °C 60 min, mean±S.D. n = 4
Experimental: Reactivity of the hit compounds toward H2S was next examined. The final concentration of the compounds was 10 or 30 μM. The assay protocol was as follows. Compounds were diluted with HSip-1 and cysteine-activated H2S donor[22] solution to 20 or 60 μM solution (15.4% DMSO) with a Multi-Drop and a pipette. Next, 2 mM L-cysteine solution (10 μL, final concentration: 1 mM L-cysteine) was dispensed into the plates (total volume was 20 μL, DMSO 7.7%), and the plates were incubated at 37 °C for 1 hr. The fluorescence of HSip-1 was measured (λex = 490 nm, λem = 510 nm) with a microplate reader. Background control wells (i.e., no addition wells instead of addition of the cysteine-activated H2S donor, n = 16) were also prepared for all plates.
Supplementary Table S2. Inhibition (%) of fluorescence increase caused by H2S in the 3rd […]
Compound 10 µM Compound 30 µM Compound 10 µM Compound 30 µM
All data are presented as the mean±S.D. (n = 4). Conditions: Mixtures of 1 μM HSip-1, 10 or 30 μM test compound, 40 μM H2S donor, 1 mM ʟ-cysteine, and 7.7% DMSO (v/v) were incubated at 37 °C for 60 min. The control with DMSO alone instead of DMSO solution of test compound was taken as 0% inhibition, and the sample without H2S donor was taken as 100% inhibition. […]
directly react with H2S: For this assay, we synthesized a reported small-molecular H2S donorS2 that produces H2S by reacting with cysteine. Each compound (10 or 30 μM) was dissolved in a solution (30 mM HEPES buffer (pH 7.4)) containing 1 μM HSip-1, 40 μM H2S donor, 1 mM ʟ-cysteine and 7.7% (v/v) DMSO as a cosolvent, and the solution was incubated at 37 °C for 60 min. Then, the fluorescence intensities were measured to evaluate the amount of H2S in the solution (Supplementary Table S2). Based on the results of the titration test and the third screening, we […]
while compounds 6-8 appeared to react with H2S. […]

[3] = molecular target: GST-fused m3MST (GST-3MST) (Mus musculus, UniProt Q99J99); experiment: 3MST inhibitor screening with H2S fluorescent probe HSip-1 (confirmation test, titration test); conditions: HSip-1 fluorescence, room temperature 3 hr; for Inhibition of 3MST, confirmation test: 10 μM compound, 50 μM 3MP, 40 μM DTT, mean±S.D. n = 4; for IC50: read-out: IC50 of 3MST inhibition (titration test), 0.25, 1, 3, 10, 30 μM compound, 3MP and DTT

SMILES | No Enzyme: inhibition of HSip-1 fluorescence increase caused by 3MP and DTT ([1]; 10 μM compound) [%] | No Enzyme: inhibition of HSip-1 fluorescence increase caused by 3MP and DTT ([1]; 50 μM compound) [%] | Inhibition (%) of fluorescence increase caused by H2S in the 3rd screening ([2]; 10 μM compound) [%] | Inhibition (%) of fluorescence increase caused by H2S in the 3rd screening ([2]; 30 μM compound) [%] | Inhibition of 3MST, confirmation test [3] [%] | IC50 [3] [µM]
Cc1nc2ccc(N=NN(C)C)cc2[nH]1 | 27.8±3.8 | 14.2±1.6 | 95.9±0.9 | 95.0±3.8 | 79.6±0.3 | 9.4
CC(CNC(=O)c1ccc(C2CCN(C(=O)c3ccccn3)CC2)nc1)N1CCCCCC1 (stereo not drawn) | 18.3±10.6 | 24.8±4.7 | 41.2±7.4 | 99.1±0.9 | 60.5±6.7 | 14.2
Cc1cnc2c(ccc3c(C)c(C)cnc32)c1C | 23.1±10.6 | 23.7±3.6 | 91.4±1.3 | 86.6±1.0 | 114.6±0.5 | 2.1
O=C1C=C(Cl)C(=O)c2c(O)cccc21 | 46.3±0.5 | 42.4±3.2 | 4.2±3.6 | 18.6±14.5 | 114.5±0.7 | 0.68
